Properties, as collected for the OPERA models

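These are experimental values that the OPERA curators gathered from public databases to train and test their QSAR models. A listed value is a point estimate from one report or more. Conditions of the individual experiments are not part of the data. The measured form (salt, isomer or mixture) is not always the one drawn. Some upstream entries may be estimates or bounds without being marked so.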

The melting point is given in degrees Celsius. The boiling point refers to atmospheric pressure (760 mmHg), by the definition of the set. The octanol-water partition coefficient is given as log10; larger values mean a more lipophilic compound. Solubility in water is on a log10 molar scale (set defined at 25 °C). Vapor pressures (log10 mmHg) refer to near room temperature, 15 to 30 °C; higher is more volatile. The unbound fraction in human plasma runs from 0 (all bound) to 1 (all free). Clint is human hepatic intrinsic clearance in µL/min per million cells; 0 means that no clearance was seen.

The entry for Cc1ccc(O)c(N=Nc2ccccc2[N+](=O)[O-])c1 lists melting point 117 °C and logP 4. Listed for CC(=O)OC1CC2CC1C1CC=CC21 (configuration not stated): melting point -10.3 °C and logP 3.9. CC/C=C\CCOC(C)=O is reported with log solubility -2.096 (log10 mol/L) and log vapor pressure 0.206 (log10 mmHg). CCCc1ccc2c(c1)OC(C(C)=O)O2 (configuration not stated) is reported with logP 2.69 and log solubility -1.98 (log10 mol/L) and log vapor pressure -2.48 (log10 mmHg). The entry for C=CC(=O)OCC(C)OCCOCC(CC)(COCCOCC(C)OC(=O)C=C)COCCOC(C)COC(=O)C=C (configuration not stated) lists melting point -67 °C and log solubility -3.365 (log10 mol/L). Listed for CC(C)(C)CC(C)(C)c1ccc(O)c(-n2nc3ccccc3n2)c1: melting point 104.3 °C and log solubility -6.285 (log10 mol/L) and log vapor pressure -7.509 (log10 mmHg) and plasma fu 0.01115 and hepatic Clint 5.87 µL/min/10^6 cells.

For COc1ccc(C(=O)Nc2ccccc2)cc1N the data give logP 2.08 and log solubility -3.866 (log10 mol/L). CCCC(=O)OC(C)C1CCCCC1 (configuration not stated) is reported with logP 5.2 and log solubility -3.921 (log10 mol/L) and log vapor pressure -1.312 (log10 mmHg). The entry for NS(=O)(=O)c1cc(S(=O)(=O)c2cccc(O)c2)co1 lists melting point 145 °C and logP 1.4 and log solubility -2.696 (log10 mol/L). CC(C)(C)c1cc(CCC(=O)NCCCNC(=O)CCc2cc(C(C)(C)C)c(O)c(C(C)(C)C)c2)cc(C(C)(C)C)c1O is reported with melting point 177.4 °C and log solubility -5.922 (log10 mol/L). CCCCC(C(=O)OCC)C(=O)OCC has logP 3.4 and log solubility -2.816 (log10 mol/L) and log vapor pressure -1.974 (log10 mmHg). For C/C=C/C(=O)C1=C(C)CCCC1(C)C the data give melting point 9 °C and logP 3.68 and log solubility -2.996 (log10 mol/L) and log vapor pressure -1.71 (log10 mmHg).

ClCC=Cc1ccccc1 is reported with logP 2.75 and log vapor pressure -1.696 (log10 mmHg). Nc1cc(Cl)nc(C(=O)O)c1Cl is reported with melting point 163.8 °C and logP 0.009 and log vapor pressure -9.929 (log10 mmHg). C=C(C)C(=O)OCCC[Si](O[Si](C)(C)C)(O[Si](C)(C)C)O[Si](C)(C)C is reported with BP 292.7 °C and log solubility -5.585 (log10 mol/L) and log vapor pressure -3.215 (log10 mmHg). O=S(=O)([O-])c1ccc(/N=N/c2c(O)ccc3cc(S(=O)(=O)[O-])ccc23)cc1.[Na+].[Na+] is reported with logP -0.099 and log solubility -2.053 (log10 mol/L). Listed for CC[Si](ON=C(C)C)(ON=C(C)C)ON=C(C)C: melting point -3.95 °C and BP 301.8 °C and logP 0.2 and log vapor pressure -3.624 (log10 mmHg). O=C1CCCCCCCC=CCCCCCCO1 has BP 338.2 °C and logP 5.723 and log solubility -5.911 (log10 mol/L) and log vapor pressure -4.297 (log10 mmHg).

CC(C)CC(C)(O)CCC(C)(O)CC(C)C (configuration not stated) is reported with melting point -37 °C and log solubility -2.149 (log10 mol/L) and log vapor pressure -3.837 (log10 mmHg). For CCN(CC)C(=O)N1CCN(C)CC1 the data give logP 0.1 and log solubility 0.073 (log10 mol/L). COc1cc(NS(=O)(=O)c2ccccc2)c2c(c1N)C(=O)c1ccccc1C2=O has melting point 236.2 °C and log vapor pressure -12.56 (log10 mmHg). OC1CSC(O)CS1 (configuration not stated) is reported with logP 0.127 and log vapor pressure -6.206 (log10 mmHg). CCCCCCCCCCCC(=O)N[C@@H](CCC(=O)O)C(=O)[O-].[Na+] is reported with melting point 220 °C and logP -1.33 and log solubility -2.5 (log10 mol/L). O=[N+]([O-])c1cc(Cl)c(N=Nc2ccc(N(CCO)CCO)cc2Cl)c(Br)c1 is reported with melting point 153.9 °C and logP 4.2 and log solubility -5.429 (log10 mol/L) and log vapor pressure -6.259 (log10 mmHg).

For CCCCCCCCC(=O)N(C)C the data give melting point -5.1 °C and logP 3.27 and log solubility -2.144 (log10 mol/L). CCCCC(CC)COC(=O)CSCC(=O)OCC(CC)CCCC (configuration not stated) has melting point -64.35 °C and log solubility -6.655 (log10 mol/L). Listed for Clc1cc(Cl)c(Oc2ccc(Cl)c(Cl)c2Cl)cc1Cl: melting point 69 °C and log solubility -8.31 (log10 mol/L). Cc1ccc(C2=CCC(C3CCC4(CC3)OCCO4)CC2)cc1 (configuration not stated) has melting point 124.5 °C and log solubility -7.717 (log10 mol/L) and log vapor pressure -8.282 (log10 mmHg). COc1ccc(C(OC[C@H]2O[C@@H](n3cnc4c(NC(=O)c5ccccc5)ncnc43)C[C@@H]2O)(c2ccccc2)c2ccc(OC)cc2)cc1 has log solubility -6.672 (log10 mol/L) and log vapor pressure -8.988 (log10 mmHg). The entry for Cn1cnc2c1c(=O)[nH]c(=O)n2C lists plasma fu 0.955 and hepatic Clint 396 µL/min/10^6 cells.

O=C1OC(=O)c2cc(-c3ccc4c(c3)C(=O)OC4=O)ccc21 has melting point 297.3 °C and log vapor pressure -7.214 (log10 mmHg). For CCOC(=O)C1=NN(c2ccccc2)C(=O)C1 the data give melting point 183 °C and logP 2 and log solubility -3.255 (log10 mol/L). The entry for Nc1ccc(/N=N/c2ccc(/N=N/c3ccc(/N=N/c4c(S(=O)(=O)[O-])cc5cc(NC(=O)c6ccccc6)ccc5c4O)c4ccc(S(=O)(=O)[O-])cc34)c3ccc(S(=O)(=O)[O-])cc23)cc1S(=O)(=O)[O-].[Na+].[Na+].[Na+].[Na+] lists logP -2.266 and log solubility -2.394 (log10 mol/L). CC(=O)NCCCS(=O)(=O)O is reported with logP -1.1 and log solubility -0.984 (log10 mol/L) and plasma fu 0.97. The entry for FC(F)(F)c1ccc(Cl)c(Cl)c1 lists logP 4.24 and log solubility -4.268 (log10 mol/L).

Excerpt, the final 4 entries:

{"smiles": "CCOC(=O)C1=NN(c2ccccc2)C(=O)C1", "melting point (°C)": "183", "logP": "2", "log solubility (log10 mol/L)": "-3.255"}
{"smiles": "Nc1ccc(/N=N/c2ccc(/N=N/c3ccc(/N=N/c4c(S(=O)(=O)[O-])cc5cc(NC(=O)c6ccccc6)ccc5c4O)c4ccc(S(=O)(=O)[O-])cc34)c3ccc(S(=O)(=O)[O-])cc23)cc1S(=O)(=O)[O-].[Na+].[Na+].[Na+].[Na+]", "logP": "-2.266", "log solubility (log10 mol/L)": "-2.394"}
{"smiles": "CC(=O)NCCCS(=O)(=O)O", "logP": "-1.1", "log solubility (log10 mol/L)": "-0.984", "plasma fu": "0.97"}
{"smiles": "FC(F)(F)c1ccc(Cl)c(Cl)c1", "logP": "4.24", "log solubility (log10 mol/L)": "-4.268"}

From the experimental data distributed with OPERA 2.9.